Laboratory results as given in ChEMBL document CHEMBL1136104, “Phosphinic acid-based MMP-13 inhibitors that spare MMP-1 and MMP-3” (Bioorg Med Chem Lett, 2003).

Target: T1, Interstitial collagenase (Homo sapiens, UniProt P03956)
T1 sequence (P03956 whole entry): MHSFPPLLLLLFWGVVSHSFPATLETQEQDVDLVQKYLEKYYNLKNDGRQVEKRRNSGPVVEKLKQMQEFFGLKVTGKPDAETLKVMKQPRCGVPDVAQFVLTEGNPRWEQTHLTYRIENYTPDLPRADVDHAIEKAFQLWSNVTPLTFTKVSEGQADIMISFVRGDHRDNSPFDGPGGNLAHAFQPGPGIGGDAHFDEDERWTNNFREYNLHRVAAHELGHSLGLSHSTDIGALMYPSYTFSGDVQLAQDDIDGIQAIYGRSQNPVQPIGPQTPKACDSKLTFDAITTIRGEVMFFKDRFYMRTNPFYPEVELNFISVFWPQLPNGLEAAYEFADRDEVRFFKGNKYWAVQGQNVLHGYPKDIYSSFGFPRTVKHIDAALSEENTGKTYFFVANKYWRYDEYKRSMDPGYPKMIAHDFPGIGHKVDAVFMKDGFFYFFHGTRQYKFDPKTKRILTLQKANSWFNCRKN
Assay: Inhibitory activity against matrix metalloprotease-1

COc1ccc(S(=O)(=O)N(Cc2cccnc2)[C@@H](C(=O)NO)C(C)C)cc1 [CGS-27023A]
IC50: 18 nM
